According to patent US6528675B1, “Cyanohydrin ethers and esters as high-sensitivity enzyme substrates” (The Regents of the University of California, priority 2001, dated 2003):

Experiment: Change in optical properties, UV absorption of esters and hydrolysis products
Assay type: physicochemical
Text: The substrates representing the invention were (R/S)-acetic acid cyano-(6-methoxynaphthalen-2-yl)-methyl ester (the title compound of Synthesis Example 1 above) and (trans/cis)-3-(2,2-dichlorovinyl)-2,2-dimethylcyclopropanecarboxylic acid cyano-(6-methoxynaphthalen-2-yl)-methyl ester (the title compound of Synthesis Example 2 above).

Molecule	λmax (tris-maleate pH 6.5, 10 μM)	λmax (tris-maleate pH 7.5, 10 μM)	λmax (tris-maleate pH 8.5, 10 μM)
naphthol	285 nm	–	–
CC(=O)Oc1ccc2ccccc2c1 [Compound 2-NA, 2-naphthacetate, reference compound]	284 nm	283 nm	283 nm
